Experiments:
Assay in all cases: co-sedimentation
[1] = biological target: E361G variant of cardiac actin (ACTC), filaments
[2] = biological target: E99K variant of cardiac actin (ACTC), filaments
[3] = biological target: A331P variant of cardiac actin (ACTC), filaments
[4] = biological target: A230V variant of cardiac actin (ACTC), filaments
[5] = biological target: R312H variant of cardiac actin (ACTC), filaments
[6] = biological target: M305L variant of cardiac actin (ACTC), filaments
[7] = biological target: Y166C variant of cardiac actin (ACTC), filaments

Kd [1]: 9.17 µM
stoichiometry N (mol/mol actin) [1]: 0.99
Kd [2]: 6.73 µM
stoichiometry N (mol/mol actin) [2]: 1.08
Kd [3]: 13.4 µM
stoichiometry N (mol/mol actin) [3]: 0.91
Kd [4]: 7.24 µM
stoichiometry N (mol/mol actin) [4]: 0.81
Kd [5]: 4.51 µM
stoichiometry N (mol/mol actin) [5]: 0.93
Kd [6]: 3.57 µM
stoichiometry N (mol/mol actin) [6]: 0.68
Kd [7]: 11.9 µM
stoichiometry N (mol/mol actin) [7]: 0.73
Substance: N-terminal C0C2 fragment of cardiac myosin binding protein-C (cMyBP-C) (from UniProt O70468 1-448) (domain or fragment)
